## Yeast mating assay 2: variants of the scFv Ab-95

Reference: Engelhart et al. 2022, doi:10.1038/s41597-022-01779-4. File: FLAb, binding data.

All variants were tested on one target, the spike HR2 peptide PDVDLGDISGINAS (SARS-CoV-2).

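The starting antibody came from a phage panning campaign against this peptide. In library AAYL52, one, two or three CDR residues were substituted; doubles and triples were drawn at random. The scFvs were displayed on barcoded MATa yeast, the peptide on MATalpha yeast. Mating (16 h, 30 °C) was followed by selection of diploids and sequencing of their barcodes. A regression on co-assayed BCL2-family reference pairs converts the normalised counts of each replicate to an apparent Kd. There are three technical replicates.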

The variants keep the heavy chain, the linker and the frameworks of Ab-95 (scFv order VH, the linker GGGGSGGGGSGGGGS, VL).
VH: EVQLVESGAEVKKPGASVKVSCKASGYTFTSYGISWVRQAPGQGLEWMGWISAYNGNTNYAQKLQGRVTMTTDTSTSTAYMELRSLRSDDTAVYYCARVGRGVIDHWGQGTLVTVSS
VL: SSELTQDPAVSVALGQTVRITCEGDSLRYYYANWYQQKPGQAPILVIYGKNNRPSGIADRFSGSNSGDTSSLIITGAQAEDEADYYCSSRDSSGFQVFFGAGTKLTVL

The parent's light chain CDRs are EGDSLRYYYAN, GKNNRPS, SSRDSSGFQVF; each variant's own CDRs replace them letter for letter.
This list gathers variants with a substitution at S92 (VL, numbered from residue 1).
The Kd shown is the geometric mean over detected replicates; a lower Kd is a better binder.
"not detected" means that the variant was in the library but no mating with the target was seen in any replicate; the authors take this as a sign of poor binding, and no number exists.
For reference, the parent read 200 nM as the reference entry and 180 nM as a member of this library.

CDR-L1,CDR-L2,CDR-L3,apparent Kd,replicates with signal
EGVSLRYYYAN,GKNNRPS,SSRDASGFQVF,1.2 µM,3 of 3
EGDSLRYYRAN,GKNNRPS,SSRDTSGFQVF,not detected,0 of 3
EGDSLRYYLAN,GKNNRPL,SSRDVSGFQVF,390 nM,3 of 3
EGDSLRYYYAN,GKNNPVS,SSRDRSGFQVF,620 nM,3 of 3
EGDSLRYYYAN,GKNNRPI,SSRENSGFQVF,2.2 µM,2 of 3
EGDSLRYYYEN,GKNNRPS,GSRDPSGFQVF,3.2 µM,1 of 3
EGDSLVYYYAN,GKNNRPS,SSRDKSGFQVF,5.3 µM,3 of 3
EYDSLRYYYAP,GKNNRPS,SSRDESGFQVF,250 nM,3 of 3
EGDSLRGYYAN,GKNNRPS,SSRDQSGFQVP,450 nM,3 of 3
EGDSDRYYYAN,GKMNRPS,SSRDLSGFQVF,8.8 µM,1 of 3
EGDSLRYYYAN,GKNNRPQ,SSRDQSGFQEF,180 µM,1 of 3
EGDSLRYYYAN,WKNNRNS,SSRDQSGFQVF,41 µM,3 of 3
EGDSLRMYYAN,GKNNRPV,SSRDTSGFQVF,2.2 µM,3 of 3
EGDSLRYYYAN,GKDNRPS,SSRDESGFQVA,740 nM,3 of 3
EGDSLRYYYAN,GKNNRPS,SSRKYSGFQVD,23 µM,2 of 3
YGDSRRYYYAN,GKNNRPS,SSRDKSGFQVF,240 nM,3 of 3
EGDSLRYYYAN,GKNNRPS,SLRDCSGFQVH,160 µM,1 of 3
EGDSLRYYYAS,GKNNRPS,SSRDLSGFQVF,190 µM,1 of 3
EGDSLRYYYAN,GKNMRPA,SSRDYSGFQVF,890 nM,3 of 3
EGDSLRYYYAN,GKNNRPF,ISRDPSGFQVF,940 nM,3 of 3
EGDSLYIYYAN,GKNNRPS,SSRDCSGFQVF,32 µM,1 of 3
EGDSLRYYYLN,GKNNRCS,SSRDTSGFQVF,1.6 µM,3 of 3
EGDSLRYYYAN,GNNNRPD,SSRDDSGFQVF,560 nM,3 of 3
EGDSLRYYYAN,GKNNRPS,SSRDWSMYQVF,41 µM,1 of 3
EGDSLRYYYAN,GKNNRPS,SPRDASGFQVT,830 nM,3 of 3
EGDSLRYYYAN,GLNNRPS,WSRDTSGFQVF,7.0 µM,1 of 3
EGGSFRYYYAN,GKNNRPS,SSRDISGFQVF,8.1 µM,2 of 3
EGDSLRYYYAA,GKNNRPS,SSRDTSIFQVF,3.0 µM,2 of 3
EGCSLRYYYAN,GKNNRPS,SDRDLSGFQVF,2.8 µM,3 of 3
EGDSLRYYYAS,GKNNVPS,SSRDMSGFQVF,6.5 µM,2 of 3
SGDSLRYYYAN,GKNNRPS,SDRDTSGFQVF,150 nM,3 of 3
EGISLRYYYAN,GKNNRPS,SSRDGSGFQVN,630 nM,3 of 3
EGDSLRYAYAN,GKNNRPS,SSRRGSGFQVF,85 nM,3 of 3
EGDSIRYYYAV,GKNNRPS,SSRDKSGFQVF,1.6 µM,3 of 3
EGDSLRYYYAN,GKNNRPS,SSRDHSGFQVF,350 nM,3 of 3
EGDSLRYYPAN,GKNNRPS,SSRDVSQFQVF,280 nM,2 of 3
ETDSERYYYAN,GKNNRPS,SSRDQSGFQVF,17 nM,3 of 3
EADSLRYYYAR,GKNNRPS,SSRDKSGFQVF,not detected,0 of 3
AGDSLRYYYAN,GKNNNPS,SSRDRSGFQVF,220 nM,3 of 3
EGDSLRYYHAN,GKNNRPS,NSRDMSGFQVF,22 nM,3 of 3
EGDSLRYYYAN,GKNNRPS,FSRDFSGSQVF,34 µM,1 of 3
EGISLRYYYAN,GKNNRPS,SSRDPSCFQVF,6.1 µM,3 of 3
EGDSLRYYYAN,GKNNRPS,SSRDHSIFQDF,1.0 µM,2 of 3
EGDSLRYYYAN,GFNNRPS,SSRDTSGFGVF,13 µM,3 of 3
EGDSLRYQYAN,GKNNRPN,SSRDESGFQVF,3.2 nM,3 of 3
CGDSLRYYYAN,GKNNRPS,SSRDDSGFFVF,580 nM,3 of 3
EGDSLRYYYAN,GKNNDPS,SSRDVSGEQVF,not detected,0 of 3
EGDSLRYYYAN,GKNNRPS,SSRDMSGFQIF,220 nM,2 of 3
EGDSLWYYYAN,GKNNRPS,YSRDFSGFQVF,93 µM,3 of 3
EGDSLCYYYAN,GKNNRPD,SSRDWSGFQVF,790 nM,3 of 3
EGDSLRYYYAN,GKNARPS,SSRDGSGSQVF,620 nM,3 of 3
EGDSLRYYYAN,GKNNRPV,SSRDQSGFVVF,570 nM,3 of 3
EGDSLRYYYAN,GKNNRTS,SSRDGRGFQVF,330 nM,3 of 3
EGDSLRYYYAN,GKNNRPS,SSRDISGPGVF,9.8 µM,2 of 3
EGDSLRYYYAN,GKNNRPD,SSRDFSYFQVF,35 µM,1 of 3
EGDSLRYTYAN,GKNNRPS,SSSDFSGFQVF,130 nM,3 of 3
EGDSARYYYAN,GRNNRPS,SSRDQSGFQVF,500 nM,3 of 3
EGNSLRYYYAN,GKNNRPC,SSRDPSGFQVF,not detected,0 of 3
EGDSNRYYYAN,GKNNRPS,SSRDDSGFQKF,11 µM,2 of 3
EGDSLRYYYAN,GKNNRER,SSRDISGFQVF,690 nM,3 of 3
EGDSLRYQYAN,GKNNRPS,SSRDTSIFQVF,11 nM,3 of 3
EGDSLRYYYAN,GKGNRPS,SSRDCSRFQVF,980 nM,3 of 3
EGDSLRYYYAN,GKNNRPS,SSHDHSGFQVF,100 nM,3 of 3
EGDALMYYYAN,GKNNRPS,SSRDTSGFQVF,960 nM,3 of 3
EGDSLRYYYAN,GKNNRPS,SSRDAFGKQVF,71 nM,3 of 3
EGDSLRYYYAN,GPNNRPS,SSRDVGGFQVF,540 nM,3 of 3
EGDSLRYYYAN,GKPNRPS,SSRDKSGFQQF,2.5 µM,1 of 3
EGDSLRRYYAN,GKNNRTS,SSRDKSGFQVF,2.6 µM,2 of 3
EGDSLRYYDAN,GKNNRPS,SSRDPSGFWVF,29 nM,3 of 3
EGDSLIYYYAN,GKLNRPS,SSRDRSGFQVF,3.9 µM,1 of 3

Empty control strains, which show no peptide, gave a signal in 28% of pairings with library AAYL52; the median was 8.2 µM and 95% of these signals were weaker than 800 nM. No background was subtracted.